According to PMC10461232, “Structure-Based Design of Transport-Specific Multitargeted One-Carbon Metabolism Inhibitors in Cytosol and Mitochondria” (Journal of Medicinal Chemistry, 2023):

Target: T1, SHMT2 (Homo sapiens, UniProt P34897)
T1 construct: made in house; host or cells: E. coli Rosetta (DE3)pLysS
T1 sequence (P34897 30-504): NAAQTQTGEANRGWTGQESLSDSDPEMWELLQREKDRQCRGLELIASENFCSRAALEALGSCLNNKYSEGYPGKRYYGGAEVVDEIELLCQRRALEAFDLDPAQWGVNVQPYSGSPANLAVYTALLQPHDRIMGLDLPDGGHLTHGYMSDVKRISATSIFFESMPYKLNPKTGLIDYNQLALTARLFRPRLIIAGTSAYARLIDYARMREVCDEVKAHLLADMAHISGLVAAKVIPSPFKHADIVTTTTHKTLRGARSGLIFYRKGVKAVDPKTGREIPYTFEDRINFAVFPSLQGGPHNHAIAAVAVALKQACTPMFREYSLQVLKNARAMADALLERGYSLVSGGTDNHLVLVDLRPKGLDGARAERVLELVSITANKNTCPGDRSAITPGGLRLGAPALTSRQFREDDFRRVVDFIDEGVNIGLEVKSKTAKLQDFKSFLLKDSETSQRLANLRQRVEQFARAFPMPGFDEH
Assay: SHMT2 inhibition assay coupled with MTHFD2, Ki
Assay type: biochemical

Nc1nc2ccn(CCCCCc3ccc(C(=O)N[C@@H](CCC(=O)O)C(=O)O)c(F)c3)c2c(=O)[nH]1 [Compound 11, (4-(5-(2-Amino-4-oxo-3,4-dihydro-5H-pyrrolo[3,2-d]pyrimidin-5-yl)pentyl)-2-fluorobenzoyl)-L-glutamic Acid]
fold increased SHMT2 inhibition potency over phenyl bridge 9 (2-fluoro-phenyl bridge versus phenyl bridge (9)): 2 fold | fold increased SHMT2 inhibition potency over 1 (ratio of Ki values relative to compound 1): 28 fold
